Format in all cases: cell-based
For one experiment, the target named is T1, A2AR (Homo sapiens, UniProt P29274).
T1 construct: expressed in transfected cells
Briefly: cAMP accumulation assay with NECA. As to conditions: A2AR (10 μM), no forskolin, mean ± SEM.

Amino acid sequences for entries named in this document (tags omitted). A change or cut given only in a name is not applied to a line headed by its entry.
UniProt P30542, whole entry: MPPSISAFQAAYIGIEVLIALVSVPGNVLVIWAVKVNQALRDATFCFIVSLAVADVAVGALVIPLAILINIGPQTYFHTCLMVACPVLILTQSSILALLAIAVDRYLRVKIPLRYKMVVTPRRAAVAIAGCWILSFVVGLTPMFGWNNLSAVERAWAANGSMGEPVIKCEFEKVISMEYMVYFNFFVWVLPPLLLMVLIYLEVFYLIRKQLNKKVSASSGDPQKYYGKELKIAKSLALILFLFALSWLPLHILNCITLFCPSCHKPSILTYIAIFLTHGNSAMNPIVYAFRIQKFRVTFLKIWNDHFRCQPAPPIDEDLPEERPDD

Another experiment has as its target T2, A2BR (Homo sapiens, UniProt P29275).
T2 construct: expressed in transfected cells
T2 sequence (P29275 1-332): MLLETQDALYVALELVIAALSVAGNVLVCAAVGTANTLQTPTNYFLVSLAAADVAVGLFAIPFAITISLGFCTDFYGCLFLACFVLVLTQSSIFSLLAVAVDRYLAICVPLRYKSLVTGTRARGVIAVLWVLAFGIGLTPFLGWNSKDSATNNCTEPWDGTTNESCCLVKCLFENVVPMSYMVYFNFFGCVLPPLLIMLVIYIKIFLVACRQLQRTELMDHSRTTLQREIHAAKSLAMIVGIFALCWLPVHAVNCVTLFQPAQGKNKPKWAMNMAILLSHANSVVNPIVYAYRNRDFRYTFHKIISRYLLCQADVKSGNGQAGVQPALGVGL
Description: cAMP accumulation assay with NECA, single-concentration Schild pKd. (Cyclic AMP is a second messenger, typically raised through Gs and lowered through Gi signalling.)

The target in another experiment is T3, human A1R (Homo sapiens, UniProt P30542).
T3 construct: expressed in transfected cells
Description: cAMP accumulation assay with NECA, incl. Schild analysis. As to conditions: 1 μM ligand, 10 μM forskolin, mean ± SEM.

The values below come from article PMC9190043, “Discovery of a High Affinity Adenosine A1/A3 Receptor Antagonist with a Novel 7-Amino-pyrazolo[3,4-d]pyridazine Scaffold” (ACS Medicinal Chemistry Letters, 2022).

As a reminder, the Kd is the constant that tells how readily two partners part at equilibrium. The low end stands for higher affinity, the high end for lower affinity. In the case of `Cn1nc(-c2ccccc2)c2cnnc(NCc3ccccc3)c21` [Compound 10b, 1-methyl-3-phenyl-7-benzylaminopyrazolo[3,4-d]pyridazine], the “pEC50 of NECA in presence of compound” value at A2AR is reported as 5.82 ± 0.33; at A2BR (A2BR (10 μM), no forskolin, mean ± SEM) it was 6.39 ± 0.07. In addition, the “antagonist efficacy in cAMP assay” value at A2BR (A2BR, activity only detectable at 10 μM) is recorded as “displayed activity”. Further, the Kd is < 2000 nM on A2BR (affinity, human A2BR) and 1740 nM on A2BR (pKd, A2BR (10 μM), mean ± SEM, N.B. printed for non-binders).

With `O=C(Cc1ccccc1)Nc1nc2ccc(Cl)cc2c2nc(-c3ccco3)nn12` [MRS1220], at human A1R, the “pEC50 of NECA in presence of compound” value was 7.32 ± 0.09.
